Like-named read-outs stand apart in the source and are kept apart here.
System: HepG2 cells
Format: cell-based, human
Protocol: Human HepG2 cells (4,000 cells/well) were incubated for 3 days with 2-fold serially diluted compounds at 37°C under an atmosphere of 5% CO2. Cell viability was determined by the addition of resazurin (0.0025% wt/vol) for 4 h at 37°C, and the fluorescence intensity was measured as in REMA.

[1] = HepG2 TD50 / M. tuberculosis H37Rv MIC

Row | Compound | Selective index (TD50/MIC) [1] | Selective index (TD50/MIC)
1 | O=C(/C=C/c1cccs1)N1CCN(Cc2ccc3c(c2)OCO3)CC1 [AX-35, (E)-1-(4-(Benzo[d][1,3]dioxol-5-ylmethyl)piperazin-1-yl)-3-(thiophen-2-yl)prop-2-en-1-one] | 1,000 | 
2 | O=C(/C=C/c1ccsc1)N1CCN(Cc2ccc3c(c2)OCO3)CC1 [AX-36, (E)-1-(4-(Benzo[d][1,3]dioxol-5-ylmethyl)piperazin-1-yl)-3-(thiophen-3-yl)prop-2-en-1-one] | 375 | 
3 | O=C(/C=C/c1cscn1)N1CCN(Cc2ccc3c(c2)OCO3)CC1 [AX-37, (E)-1-(4-(Benzo[d][1,3]dioxol-5-ylmethyl)piperazin-1-yl)-3-(1λ^3,3λ^2-thiazol-4-yl)prop-2-en-1-one] |  | 250
4 | O=C(/C=C/c1ccccc1)N1CCN(Cc2ccc3c(c2)OCO3)CC1 [AX-38, (E)-1-(4-(Benzo[d][1,3]dioxol-5-ylmethyl)piperazin-1-yl)-3-phenylprop-2-en-1-one] |  | 188
5 | O=C(/C=C/c1nccs1)N1CCN(Cc2ccc3c(c2)OCO3)CC1 [AX-39, (E)-1-(4-(Benzo[d][1,3]dioxol-5-ylmethyl)piperazin-1-yl)-3-(thiazol-2-yl)prop-2-en-1-one] |  | 250
